The values below come from ChEMBL document CHEMBL5143607, “Discovery and structure-activity relationships of a novel oxazolidinone class of bacterial type II topoisomerase inhibitors” (Bioorg Med Chem Lett, 2022).

The chains behind the UniProt entries cited, without tags or fusion partners.
UniProt Q12809, whole entry: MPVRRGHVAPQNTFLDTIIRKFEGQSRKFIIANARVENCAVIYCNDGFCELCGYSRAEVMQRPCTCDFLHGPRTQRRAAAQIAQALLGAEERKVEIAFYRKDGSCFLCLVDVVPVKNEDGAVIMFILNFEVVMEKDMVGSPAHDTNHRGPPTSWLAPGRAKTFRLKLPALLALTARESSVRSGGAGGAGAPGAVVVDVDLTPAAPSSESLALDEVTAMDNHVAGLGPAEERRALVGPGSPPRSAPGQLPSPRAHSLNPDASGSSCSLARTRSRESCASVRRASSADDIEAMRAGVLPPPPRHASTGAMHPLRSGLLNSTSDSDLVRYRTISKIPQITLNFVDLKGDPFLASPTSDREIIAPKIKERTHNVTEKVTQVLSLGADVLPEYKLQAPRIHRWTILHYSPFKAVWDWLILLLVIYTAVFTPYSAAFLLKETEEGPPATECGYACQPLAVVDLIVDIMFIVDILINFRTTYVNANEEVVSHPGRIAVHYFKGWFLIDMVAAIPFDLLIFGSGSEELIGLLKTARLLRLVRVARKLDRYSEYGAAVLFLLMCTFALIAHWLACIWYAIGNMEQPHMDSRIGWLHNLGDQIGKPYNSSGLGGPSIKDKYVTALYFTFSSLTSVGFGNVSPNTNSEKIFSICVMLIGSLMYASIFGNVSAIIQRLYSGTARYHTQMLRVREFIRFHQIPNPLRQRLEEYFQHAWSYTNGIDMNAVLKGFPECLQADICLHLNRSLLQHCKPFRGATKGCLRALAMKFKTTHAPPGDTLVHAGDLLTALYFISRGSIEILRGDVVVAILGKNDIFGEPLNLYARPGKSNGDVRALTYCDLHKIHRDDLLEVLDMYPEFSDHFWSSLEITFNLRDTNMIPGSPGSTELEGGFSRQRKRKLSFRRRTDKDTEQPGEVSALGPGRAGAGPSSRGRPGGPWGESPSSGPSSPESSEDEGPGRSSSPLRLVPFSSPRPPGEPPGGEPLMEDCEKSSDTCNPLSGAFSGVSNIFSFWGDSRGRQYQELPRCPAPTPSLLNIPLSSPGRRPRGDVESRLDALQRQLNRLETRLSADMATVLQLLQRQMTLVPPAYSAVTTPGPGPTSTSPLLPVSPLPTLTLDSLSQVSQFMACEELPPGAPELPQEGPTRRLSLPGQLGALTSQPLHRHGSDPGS

Data set [1] concerns the target Voltage-gated inwardly rectifying potassium channel KCNH2 (Homo sapiens, UniProt Q12809). As to the kind of experiment: Inhibition of human ERG at 100 uM by Ionworks electrophysiology assay. The format is toxicity.
A short description of data set [2]: Lipophilicity, logD of the compound by shake flask assay. The format is physicochemical. Particulars: octanol/water.
Data set [3] can be described thus: Protein binding in mouse plasma by equilibrium dialysis assay. The format is ADME, cell-free.
Data set [4] in a line: Protein binding in human plasma by equilibrium dialysis assay. Type of data set: ADME, cell-free.
The test system of data set [5] is HepG2. As to the kind of experiment: Cytotoxicity against human HepG2 cells assessed as reduction in cell viability for 24 hrs by Celltiter-Glo assay.

The logD is the decadic logarithm of the distribution of all forms, ionised or not, between an organic phase and buffer at a given pH. A higher logD goes with higher lipophilicity. As a reminder, the IC50 is the point on the concentration scale where inhibition reaches its midpoint.

Only a part of the results on these compounds is given; other tests are left out.

In turn, `COc1ccc2ccc(=O)n(CCN3CC[C@@H]4[C@H](C3)OC(=O)N4c3ccc4c(n3)NC(=O)CO4)c2n1` yielded an inhibition (INH) in data set [1] of 92%. This molecule gave a pH-dependent lipophilicity (logD) in data set [2] of 2.6. In addition, the figures for the PPB in data set [3] and in data set [4] were 6.2% and 1.6%, respectively.
On to `COc1ccc2ccc(=O)n(CCN3CC[C@H]4[C@H](C3)OC(=O)N4c3ccc4c(n3)NC(=O)CO4)c2n1`, for which the half-inhibitory concentration (IC50) in data set [5] is > 16 mg/L. The same molecule showed an inhibition (INH) in data set [1] of 96%. Also, the log distribution coefficient (logD) in data set [2] is 2.8. Also, the PPB in data set [4] worked out at 1.6%.
